Source: patent publication US20040176294A1, “Use of thyroid-stimulating hormone to induce lipolysis” (priority 2003, published 2004)

What was measured:
[1] = system: undifferentiated 3T3 L1 fibroblasts; assay: CRE-luciferase reporter (cAMP) assay in undifferentiated 3T3 L1 fibroblasts; format: cell-based, murine
Text: Differentiated murine 3T3 L1 adipocytes and primary human adipocytes were used to study signal transduction of TSH. 3T3 L1 fibroblasts were differentiated into adipocytes and the cells were transduced with recombinant adenovirus containing a reporter construct, a firefly luciferase gene under the control of cAMP response element (CRE) enhancer sequences. This assay system detects cAMP-mediated gene induction downstream of activation of Gs-coupled G-protein coupled receptors (GPCR's). […] In a separate experiment, undifferentiated 3T3 L1 fibroblasts were transduced with the recombinant adenovirus. […] In another experiment, human primary adipocytes were also transduced with the recombinant adenovirus containing a reporter construct. Treatment of the human adipocytes with isoproterenol produced a 22-fold induction of luciferase expression.
3T3 L1 cells were obtained from the ATCC (CL-173, Manasas, Va.) and cultured in growth medium as follows: the cells were propagated in DMEM high glucose (Life Technologies, cat. # 11965-092) containing 10% bovine calf serum (JRH Biosciences, cat. # 12133-78P). Cells were cultured at 37° C. in an 8% CO2 humidified incubator. Cells were seeded in collagen-coated 96-well plates (Becton Dickinson, cat. # 356407) at a density of 5,000 cells per well. […]

[2] = system: male ob/ob mice; assay: Chronic treatment of ob/ob mice: body weight and food intake; format: in vivo; conditions: daily IP treatment
Experimental: (§1) 11-week old male ob/ob mice were individually caged and given a standard lab chow (4% fat) with free access to food and water. Animals were assigned to a treatment group (n=7-8, average weight 54.3+/−0.3 g per group), kept on a 12 hour dark cycle (6 PM to 6 AM), and injected each day between 7 and 9 AM. Chow consumed by each animal was weighed twice weekly. All animals received treatments IP with an injection volume of 0.1 ml. TSH was administered at 267 μg/kg, and the H3-AR agonist CL 316,243 at 0.75 mg/kg. Thyroid hormone (T4) was administered at 1.5 μg/mouse for 4 days, reduced to 1 [μg/mouse for 10 days, and returned to 1.5 μg/mouse for the next 14 days. The vehicle controls received sterile saline. TSH was obtained from Genzyme Pharmaceuticals, (Thyrogen®, catalog number 36778; Genzyme Corporation, Cambridge, Mass.), CL316,243 from Sigma Biochemicals, and T4 obtained from Calbiochem, Inc. All blood draws were performed by retro-orbital puncture under isoflurane anesthesia.
Body weight changes were assessed as the percentage increase in body weight from the beginning of the study. The weight in the vehicle group increased 8.8+/−0.6%.

[3] = system: male ob/ob mice; conditions: mouse, in vivo
Experimental: as §1
After 25 days of treatment as described above, blood was sampled from all treated animals (n=7-8/group), serum separated, and analyzed for total T4 by a commercially available kit (Biocheck, Burlingame, Calif.). […] After 25 days of treatment, the vehicle T4 levels were 5.14+/−0.08 μg/dl. […]

[4] = system: male ob/ob mice; assay: Chronic treatment of ob/ob mice: liver steatosis histology score; format: in vivo; conditions: H&E sections, n=4, vehicle score 4
Experimental: as §1
Liver sections were dissected from all treatment groups described above and mounted in paraffin following fixation with NBS-formalin. […] The extent of liver steatosis was evaluated on a four-point scale, […], with zero displaying no signs of liver steatotosis, and 4, representing pronounced macrovesicular and microvesicular steatosis. […]

Substance: TSH: ~30 kDa glycoprotein of two non-covalently linked alpha and beta subunits; Thyrogen, Genzyme Corporation
- reporter gene induction [1]: did not result in an increase in reporter gene induction
- percentage increase in body weight from the beginning of the study ([2]; 28 days): 4.6+/−2.4%
- members of the group with an overall decrease in weight ([2]; one month): 3 of the 8
- circulating thyroid hormone (T4) versus vehicle controls [3]: do not increase above the levels found in the vehicle controls
- total T4 in serum [3]: 5.31 ± 0.16 µg/dL
- average liver steatosis score [4]: 2
